## Permeability data for macrocyclic peptides

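The data file gives no further conditions (lipid, pH, time, direction or concentration), and values from different papers need not be comparable. Other peptides of the study may be missing here. Peptides that the database sets to -10, its floor, are left out.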

PAMPA measures passive passage through an artificial lipid membrane.
P is given in units of 10^-6 cm/s (from log10 values with two decimals); larger means faster passage.

structure (SMILES)	PAMPA (10^-6 cm/s)
CCCN1CC(=O)N(C)[C@@H](CC(C)C)C(=O)N[C@H](CC(C)C)C(=O)N2CCC[C@H]2C(=O)N[C@@H](CC(C)C)C(=O)N[C@@H](Cc2ccccc2)C1=O	1.4
CC(C)C[C@@H]1NC(=O)[C@H]2CCCN2C(=O)[C@H](CC(C)C)N(C)C(=O)[C@@H](CC(C)C)N(C)C(=O)[C@H](C)NC(=O)[C@@H]2CCCN2C(=O)[C@H](Cc2ccccc2)NC1=O	1.4
CC(C)C[C@@H]1NC(=O)[C@H](C)N(C)C(=O)[C@H]2CCCN2C(=O)[C@H](Cc2ccccc2)NC(=O)[C@H](CC(C)C)NC(=O)[C@@H]2CCCN2C(=O)C[C@H](Cc2ccccc2)NC1=O	0.83
CCCN1CC(=O)N[C@H](CC(C)C)C(=O)N(Cc2ccccc2)CC(=O)N2CCC[C@H]2C(=O)N[C@H](CC(C)C)C(=O)N[C@@H](Cc2ccccc2)C(=O)N2CCC[C@H]2C1=O	0.51
CC(C)C[C@@H]1NC(=O)[C@H](C)N(C)C(=O)[C@H]2CCCN2C(=O)[C@H](Cc2ccccc2)NC(=O)CN(Cc2ccccc2)C(=O)[C@H]2CCCN2C(=O)[C@@H](CC(C)C)N(C)C1=O	4.3
CC(C)C[C@@H]1C(=O)N(C)[C@@H](CC(C)C)C(=O)N2CCC[C@H]2C(=O)N(C)[C@H](CC(C)C)C(=O)N[C@@H](Cc2ccccc2)C(=O)N2CCC[C@H]2C(=O)N(C)[C@@H](C)C(=O)N1C	1.9
CC(C)C[C@@H]1NC(=O)[C@@H](CC(C)C)N(C)C(=O)[C@@H](C)N(C)C(=O)[C@H]2CCCN2C(=O)[C@H](Cc2ccccc2)NC(=O)[C@@H](CC(C)C)N(C)C(=O)[C@@H]2CCCN2C1=O	5.9
CC(C)C[C@@H]1NC(=O)[C@@H](C)N(C)C(=O)[C@@H]2CCCN2C(=O)[C@H](Cc2ccccc2)NC(=O)[C@@H](CC(C)C)N(C)C(=O)[C@@H]2CCCN2C(=O)CN(Cc2ccccc2)C1=O	2.5
CC(C)C[C@@H]1NC(=O)[C@@H](CC(C)C)N(C)C(=O)[C@@H](C)NC(=O)[C@H]2CCCN2C(=O)[C@H](Cc2ccccc2)NC(=O)CN(Cc2ccccc2)C(=O)[C@@H]2CCCN2C1=O	1.4
CC(C)C[C@H]1C(=O)N[C@@H](Cc2ccccc2)C(=O)N2CCC[C@H]2C(=O)N(C)[C@@H](C)C(=O)N(Cc2ccccc2)CC(=O)N[C@@H](Cc2ccccc2)CC(=O)N2CCC[C@H]2C(=O)N1C	2.3
CC(C)C[C@H]1NC(=O)[C@H](C)N(C)C(=O)[C@@H]2CCCN2C(=O)[C@H](Cc2ccccc2)NC(=O)[C@H](CC(C)C)N(C)C(=O)[C@@H]2CCCN2C(=O)[C@H](CC(C)C)N(C)C1=O	2.6
CC(C)C[C@H]1C(=O)N[C@@H](Cc2ccccc2)C(=O)N2CCC[C@H]2C(=O)N[C@@H](Cc2ccccc2)CC(=O)N(Cc2ccccc2)CC(=O)N[C@@H](Cc2ccccc2)CC(=O)N2CCC[C@H]2C(=O)N1C	0.98
CC(C)C[C@H]1NC(=O)[C@@H](C)N(C)C(=O)[C@H]2CCCN2C(=O)[C@H](Cc2ccccc2)NC(=O)CN(Cc2ccccc2)C(=O)[C@@H]2CCCN2C(=O)[C@@H](CC(C)C)NC1=O	1
CCCN1CC(=O)N[C@H](CC(C)C)C(=O)N[C@H](CC(C)C)C(=O)N2CCC[C@@H]2C(=O)N(C)[C@H](CC(C)C)C(=O)N[C@@H](Cc2ccccc2)C1=O	0.95
CC(C)C[C@@H]1C(=O)N(C)[C@@H](CC(C)C)C(=O)N2CCC[C@@H]2C(=O)N(Cc2ccccc2)CC(=O)N[C@@H](Cc2ccccc2)C(=O)N2CCC[C@@H]2C(=O)N(C)[C@H](C)C(=O)N1C	0.52
CC(C)C[C@@H]1C(=O)N(Cc2ccccc2)CC(=O)N2CCC[C@H]2C(=O)N(C)[C@H](CC(C)C)C(=O)N[C@@H](Cc2ccccc2)C(=O)N2CCC[C@@H]2C(=O)N[C@H](C)C(=O)N1C	3.5

A selection of 2 entries from above:

structure (SMILES)	PAMPA (10^-6 cm/s)
CCCN1CC(=O)N[C@H](CC(C)C)C(=O)N[C@H](CC(C)C)C(=O)N2CCC[C@@H]2C(=O)N(C)[C@H](CC(C)C)C(=O)N[C@@H](Cc2ccccc2)C1=O	0.95
CC(C)C[C@@H]1NC(=O)[C@H]2CCCN2C(=O)[C@H](CC(C)C)N(C)C(=O)[C@@H](CC(C)C)N(C)C(=O)[C@H](C)NC(=O)[C@@H]2CCCN2C(=O)[C@H](Cc2ccccc2)NC1=O	1.4

Values of Townsend et al. 2020, doi:10.26434/chemrxiv.13335941.v1, as listed in CycPeptMPDB.